Measurements taken from patent US20250304643A1, “PEPTIDE DUAL AGONISTS OF GIPR AND GLP2R” (BAINAN BIOTECH APS, priority 2021, published 2025).

Amino acid sequences for entries named in this document (tags omitted). Residues count along the entry.
UniProt P43220, 24-463: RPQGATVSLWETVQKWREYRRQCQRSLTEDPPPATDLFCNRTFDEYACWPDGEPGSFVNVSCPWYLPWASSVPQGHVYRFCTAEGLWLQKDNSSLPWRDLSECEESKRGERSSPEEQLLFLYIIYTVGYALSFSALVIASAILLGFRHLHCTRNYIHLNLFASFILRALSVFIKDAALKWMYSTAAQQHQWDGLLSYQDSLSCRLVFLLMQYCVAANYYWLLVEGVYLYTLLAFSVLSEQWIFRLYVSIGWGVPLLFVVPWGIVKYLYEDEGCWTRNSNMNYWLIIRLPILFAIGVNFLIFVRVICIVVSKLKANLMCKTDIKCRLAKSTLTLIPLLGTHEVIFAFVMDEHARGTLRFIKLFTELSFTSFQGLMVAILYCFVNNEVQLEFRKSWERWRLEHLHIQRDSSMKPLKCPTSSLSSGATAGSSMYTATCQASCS

Experiments:
[1] = target: T1, human GLP-2R (Homo sapiens, UniProt O95838); experiment: HitHunter cAMP assay in transiently transfected COS-7 cells, human GLP-2R; type: cell-based; conditions: cAMP, COS-7 cells expressing human GLP-2R; Table 2;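 also: cells kept 30 min at 37 °C in buffer with 1 mM IBMX, then given ligand for another 30 min at 37 °C before cAMP readout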
T1 construct: host or cells: COS-7
T1 sequence (O95838 1-553): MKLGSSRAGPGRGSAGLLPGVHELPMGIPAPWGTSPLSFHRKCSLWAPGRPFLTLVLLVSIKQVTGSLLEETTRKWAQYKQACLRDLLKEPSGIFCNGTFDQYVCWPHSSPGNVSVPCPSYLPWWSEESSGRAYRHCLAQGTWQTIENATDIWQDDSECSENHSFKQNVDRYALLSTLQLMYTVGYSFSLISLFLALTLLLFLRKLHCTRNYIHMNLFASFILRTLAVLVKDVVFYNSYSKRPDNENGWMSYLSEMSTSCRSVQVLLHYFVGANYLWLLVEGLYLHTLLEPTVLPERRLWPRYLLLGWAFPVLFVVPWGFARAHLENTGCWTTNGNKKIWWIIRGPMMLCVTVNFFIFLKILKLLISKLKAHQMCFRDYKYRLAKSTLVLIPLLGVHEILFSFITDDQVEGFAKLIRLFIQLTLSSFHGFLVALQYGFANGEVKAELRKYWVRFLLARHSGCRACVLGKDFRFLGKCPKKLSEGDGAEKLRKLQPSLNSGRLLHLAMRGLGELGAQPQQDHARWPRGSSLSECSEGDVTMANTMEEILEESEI

[2] = target: T2, human GLP-1R (Homo sapiens, UniProt P43220); experiment: HitHunter cAMP assay in transiently transfected COS-7 cells, human GLP-1R; type: cell-based; conditions: cAMP, COS-7 cells expressing human GLP-1R; Table 3
T2 construct: host or cells: COS-7

[3] = target: T3, human SNAP-GIPR (Homo sapiens, UniProt P48546); type: cell-based; conditions: GIPR internalization, HEK293A SNAP-GIPR; NA = no activity
T3 construct: host or cells: HEK293A
T3 sequence (P48546 22-466): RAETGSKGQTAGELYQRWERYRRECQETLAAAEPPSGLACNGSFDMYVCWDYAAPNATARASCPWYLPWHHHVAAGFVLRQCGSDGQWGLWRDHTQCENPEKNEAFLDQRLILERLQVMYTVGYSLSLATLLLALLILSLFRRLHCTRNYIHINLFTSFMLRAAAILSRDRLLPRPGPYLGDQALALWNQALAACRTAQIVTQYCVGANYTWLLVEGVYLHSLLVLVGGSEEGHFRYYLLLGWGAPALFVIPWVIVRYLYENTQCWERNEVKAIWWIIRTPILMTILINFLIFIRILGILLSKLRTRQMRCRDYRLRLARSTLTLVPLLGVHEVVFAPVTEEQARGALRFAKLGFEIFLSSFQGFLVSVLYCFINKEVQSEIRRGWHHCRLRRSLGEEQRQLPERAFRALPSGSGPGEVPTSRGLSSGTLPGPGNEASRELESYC

[4] = target: T4, rat GIPR (Rattus norvegicus, UniProt P43219); experiment: HitHunter cAMP assay in transiently transfected COS-7 cells, rat GIPR; type: cell-based; conditions: COS-7 cells expressing rat GIPR
T4 construct: expressed in transfected cells; host or cells: COS-7
T4 sequence (P43219 19-455): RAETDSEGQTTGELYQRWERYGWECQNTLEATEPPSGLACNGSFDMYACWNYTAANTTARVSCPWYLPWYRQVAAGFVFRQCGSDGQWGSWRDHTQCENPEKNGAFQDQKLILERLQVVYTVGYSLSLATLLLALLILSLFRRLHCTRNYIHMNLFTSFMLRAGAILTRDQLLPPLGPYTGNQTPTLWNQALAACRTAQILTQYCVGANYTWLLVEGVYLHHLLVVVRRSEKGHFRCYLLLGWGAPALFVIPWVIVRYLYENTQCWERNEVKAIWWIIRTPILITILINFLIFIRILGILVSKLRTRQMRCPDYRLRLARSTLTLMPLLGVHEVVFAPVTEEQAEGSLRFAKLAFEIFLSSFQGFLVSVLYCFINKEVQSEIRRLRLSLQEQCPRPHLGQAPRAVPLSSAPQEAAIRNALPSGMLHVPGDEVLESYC
Protocol: (§1) The next day the assay was initiated by washing with HEPES buffered saline (HBS) and followed by an incubation step with assay buffer (HBS added 1 mM isobutyl-1-methylxanthine (IBMX)) for 30 min at 37° C. The ligands were then added and incubated for an additional 30 min at 37° C. After ligand incubation, the HitHunter® CAMP assay (Eurofins DiscoverX, Fremont, […] USA) was carried out according to the manufacturer's instructions. Luminescence was measured by PerkinElmer™ EnVision 2014 Multilabel Reader (PerkinElmer, Waltham, MA). The potencies (EC50 values) were determined by nonlinear regression using GraphPad Prism 9 (San Diego, California, USA). Sigmoid curves were fitted logistically. The efficacies (Emax values) were determined by normalization to the highest concentration applied of the endogenous ligand for each receptor.

[5] = target: T5, rat GLP-2R (Rattus norvegicus, UniProt Q9Z0W0); experiment: HitHunter cAMP assay in transiently transfected COS-7 cells, rat GLP-2R; type: cell-based; conditions: COS-7 cells expressing rat GLP-2R
T5 construct: expressed in transfected cells; host or cells: COS-7
T5 sequence (Q9Z0W0 1-550): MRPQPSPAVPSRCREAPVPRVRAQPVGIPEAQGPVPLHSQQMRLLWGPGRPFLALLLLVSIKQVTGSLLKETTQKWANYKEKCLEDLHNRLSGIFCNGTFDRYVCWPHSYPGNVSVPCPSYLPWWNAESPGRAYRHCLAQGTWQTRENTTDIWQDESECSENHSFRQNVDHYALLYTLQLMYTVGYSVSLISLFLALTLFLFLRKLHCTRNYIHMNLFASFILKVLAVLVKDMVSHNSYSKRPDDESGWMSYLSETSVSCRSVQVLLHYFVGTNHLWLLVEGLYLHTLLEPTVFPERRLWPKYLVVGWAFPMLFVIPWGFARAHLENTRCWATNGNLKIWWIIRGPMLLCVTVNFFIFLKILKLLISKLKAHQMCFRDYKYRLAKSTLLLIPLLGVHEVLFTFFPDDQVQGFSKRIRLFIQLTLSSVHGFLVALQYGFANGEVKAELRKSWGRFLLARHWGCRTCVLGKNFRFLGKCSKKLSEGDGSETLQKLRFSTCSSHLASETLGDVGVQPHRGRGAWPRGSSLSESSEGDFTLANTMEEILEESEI
Protocol: as §1

[6] = target: T6, human GIPR (Homo sapiens, UniProt P48546); type: cell-based; design: host or cells: COS-7; conditions: Table 2; for EC50 / PEC50 GIPR: cAMP, COS-7 cells expressing human GIPR
T6 sequence (P48546 22-466): T3 sequence (P48546 22-466)

[7] = target: T6, human GIPR; type: cell-based; design: host or cells: HEK293; conditions: beta-arrestin 2 recruitment to human GIPR, HEK293; NA = no activity
[8] = PK study in rats, half-life after SC or IV administration; type: in vivo, rat; conditions: Sprague Dawley rats, 100 nmol/kg SC, plasma LC-MS
Protocol: Sprague Dawley male or female rats, weight 200-300 g, n=3, were used for PK studies. Compounds were dissolved in 80% DMSO and further diluted/or directly dissolved in 50 mM phosphate buffer, pH 7.5+0.1% Haemaccel or casein. Dose given was 100 nmol/kg for all SC administrations and 20 nmol/kg or 100 nmol/kg for IV administrations. Blood samples were taken in the timeframe 0-72 H after compound administration. Plasma was obtained and stored at −20° C. until evaluation by LC-MS or LC-MS/MS.

## H-Aib-DGTFISDY-K(γGlu-C16)-T-Aib-LDALAARDFIEWLIQTKITK-OH [Compound no. 33]
[1]
  EC50: 1.4 nM
  logEC50 GLP-2R: 8.9
[2]
  logEC50 GLP-1R: no activation
[3]
  pEC50 ± SD: 7.0 ± 0.2
[4]
  rGIPR pEC50: 8.6
[5]
  rGLP-2R pEC50: 8.5
[6]
  EC50: 0.355 nM
  PEC50 GIPR: 9.5
[7]
  pEC50 ± SD: 8.4 ± 0.9

## H-Aib-DGTFISDY-K(γGlu-C16)-TILDNLAARDFINWLIQTKGKKNDWKHNITQ-NH2 [Compound no. 14]
[1]
  EC50: 3.5 nM
  logEC50 GLP-2R: 8.5
[2]
  logEC50 GLP-1R: no activation
[4]
  rGIPR pEC50: 8.8
[5]
  rGLP-2R pEC50: 8.4
[6]
  EC50: 0.266 nM
  PEC50 GIPR: 9.6

## Ac-H-Aib-DGTFISDYS-K(γGlu-C16)-Aib-LDNLAARDFINWLIQTKITK-OH [Compound no. 36]
[1]
  EC50: 4.5 nM
  logEC50 GLP-2R: 8.4
[2]
  EC50: 0.01 nM
  logEC50 GLP-1R: 11.0
[3]
  pEC50 ± SD: 6.7 ± 0.1
[6]
  EC50: 1 nM
  PEC50 GIPR: 9.0

## H-Aib-DGTFISDYS-K(γGlu-C16)-Aib-LDNLAARDFINWLIQTKITK-OH [Compound no. 35]
[1]
  EC50: 0.9 nM
  logEC50 GLP-2R: 9.1
[2]
  EC50: 0.11 nM
  logEC50 GLP-1R: 10.0
[4]
  rGIPR pEC50: 8.3
[5]
  rGLP-2R pEC50: 8.5
[6]
  EC50: 0.141 nM
  PEC50 GIPR: 9.9
[7]
  pEC50 ± SD: 8.5 ± 0.3

## (C16-diacid)H-Aib-DGTFISDYST-Aib-LDNLAARDFINWLIQTKITKNDWKHNITQ-OH [Compound no. 40]
[1]
  EC50: 1.1 nM
  logEC50 GLP-2R: 9.0
[2]
  logEC50 GLP-1R: no activation
[8]
  T1/2 (h) SC administration: 5.24 h
[6]
  EC50: 1 nM
  PEC50 GIPR: 9.0

## H-Aib-DG-K(γGlu-C16 diacid)-FISDYST-Aib-LDNLAARDFINWLIQTKITK-OH [Compound no. 25]
[1]
  EC50: 1.1 nM
  logEC50 GLP-2R: 9.0
[2]
  logEC50 GLP-1R: no activation
[3]
  pEC50 ± SD: 7.2 ± 0.1
[4]
  rGIPR pEC50: 8.0
[5]
  rGLP-2R pEC50: 8.3
[6]
  EC50: 0.106 nM
  PEC50 GIPR: 10.0
[7]
  pEC50 ± SD: 8.9 ± 0.6

## H-Aib-DG-K(γGlu-C16)-FISDYSTILDNLAARDFINWLIQTKITK-OH [Compound no. 9]
[1]
  EC50: 2.5 nM
  logEC50 GLP-2R: 8.6
[2]
  EC50: 70.8 nM
  logEC50 GLP-1R: 7.2
[4]
  rGIPR pEC50: 9.5
[5]
  rGLP-2R pEC50: 7.9
[6]
  EC50: 0.141 nM
  PEC50 GIPR: 9.9

## (C10)H-Aib-DGTFISDYST-Aib-LDNLAARDFINWLIQTKITK-OH [Compound no. 44]
[1]
  EC50: 2.9 nM
  logEC50 GLP-2R: 8.5
[2]
  EC50: 18.5 nM
  logEC50 GLP-1R: 7.7
[4]
  rGIPR pEC50: 8.4
[5]
  rGLP-2R pEC50: 8.1
[6]
  EC50: 1.07 nM
  PEC50 GIPR: 9.0

## H-Aib-DGTFISDYSTIL-K(γGlu-C16)-NLAARDFINWLIQTKITK-OH [Compound no. 13]
[1]
  EC50: 6.3 nM
  logEC50 GLP-2R: 8.2
[2]
  logEC50 GLP-1R: no activation
[4]
  rGIPR pEC50: 7.5
[5]
  rGLP-2R pEC50: 8.1
[6]
  EC50: 0.794 nM
  PEC50 GIPR: 9.1

## H-Aib-DG-K(γGlu-C10)-FISDYST-Aib-LDNLAARDFINWLIQTKITK-OH [Compound no. 24]
[1]
  EC50: 3.5 nM
  logEC50 GLP-2R: 8.5
[2]
  logEC50 GLP-1R: no activation
[3]
  pEC50 ± SD: 7.7 ± 0.1
[4]
  rGIPR pEC50: 8.6
[5]
  rGLP-2R pEC50: 8.3
[7]
  pEC50 ± SD: 9.1 ± 0.6

## H-Aib-DGTFISDY-K(γGlu-C16)-TAib-LDNLAARDFINWLIQTKITKNDWKHNITQ-OH [Compound no. 37]
[1]
  EC50: 0.7 nM
  logEC50 GLP-2R: 9.1
[2]
  logEC50 GLP-1R: no activation
[3]
  pEC50 ± SD: 6.4 ± 0.3
[4]
  rGIPR pEC50: 8.8
[5]
  rGLP-2R pEC50: 8.9
[6]; Emax normalized to highest concentration of endogenous ligand
  Efficacy GIPR: 95
[6]
  EC50: 0.302 nM
  PEC50 GIPR: 9.5
[7]
  pEC50 ± SD: 8.0 ± 4.3
